In ChEMBL document CHEMBL3638881, “Compounds for the treatment of inflammatory disorders” (2013):

Molecular target: Tumor necrosis factor (Homo sapiens, UniProt P01375)
Experiment: Inhibition Assay: Inhibition assay using TNF-alpha.

Structure (SMILES): CO/N=C(\c1ccc(C#C[C@]2(CN3Cc4ccc(OC)cc4C3=O)NC(=O)NC2=O)cc1)N1CCOCC1
- IC50: 1240 nM
